Kd data for one substance are collected here from PMC4357715, “The beta hairpin structure within ribosomal protein S5 mediates interplay between domains II and IV and regulates HCV IRES function” (Nucleic Acids Research, 2015).

For the data set, the system named is S5M1 peptide. The data set is described as follows: filter binding.

HCV IRES 18-383 WT: the Kd was 5.6 µM.
